# Biological target: T1, Caspase-3 (Homo sapiens, UniProt P42574)
# T1 sequence (P42574 whole entry): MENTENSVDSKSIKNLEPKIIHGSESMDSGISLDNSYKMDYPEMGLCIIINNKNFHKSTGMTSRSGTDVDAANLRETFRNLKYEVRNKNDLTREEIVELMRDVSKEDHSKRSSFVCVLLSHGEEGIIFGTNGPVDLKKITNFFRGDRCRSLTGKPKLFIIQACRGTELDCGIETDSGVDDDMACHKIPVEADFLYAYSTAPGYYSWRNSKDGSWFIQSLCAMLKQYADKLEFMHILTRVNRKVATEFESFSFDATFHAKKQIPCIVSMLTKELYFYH
# Assay: Inhibitory concentration required against human Caspase-3
compound,measurement,value
CC(=O)N[C@@H](CC(=O)O)C(=O)N[C@@H](CCC(=O)O)C(=O)N[C@H](C(=O)N[C@H](C=O)CC(=O)O)C(C)C,IC50,27 nM

# — ChEMBL document CHEMBL1136077, “Nicotinyl aspartyl ketones as inhibitors of caspase-3” (Bioorg Med Chem Lett, 2003)
